Experiment [1] relates to acetylcholine bromide-induced abdominal constriction. The experiment is described as follows: Mouse Acetylcholine Bromide-Induced Abdominal Constriction Assay (MAIT). The following applies: po, acetylcholine bromide 5.5 mg/kg i.p. 30 minutes after drug, dose not given. How it is done: Mouse Acetylcholine Bromide-Induced Abdominal Constriction Assay (MAIT)
The mouse acetylcholine bromide-induced abdominal constriction assay, as described by Collier et al. in Brit. J. Pharmacol. Chem. Ther., 32: 295-310, 1968, with minor modifications was used to assess analgesic potency of the compounds herein. The test drugs or appropriate vehicle were administered orally (p.o.) and 30 minutes later the animal received an intraperitoneal (i.p.) injection of 5.5 mg/kg acetylcholine bromide (Matheson, Coleman and Bell, East Rutherford, N.J.). The mice were then placed in groups of three into glass bell jars and observed for a ten minute observation period for the occurrence of an abdominal constriction response (defined as a wave of constriction and elongation passing caudally along the abdominal wall, accompanied by a twisting of the trunk and followed by extension of the hind limbs). The percent inhibition of this response to a nociceptive stimulus (equated to % analgesia) was calculated as follows: The % Inhibition of response, i.e., % analgesia is equal to the difference between the number of control animals responding and the number of drug-treated animals responding times 100 divided by the number of control animals responding.
At least 15 animals were used for control and in each of the drug treated groups. At least three doses were used to determine each dose response curve and ED50 (that dose which would produce 50% analgesia). The ED50 values and their 95% fiducial limits were determined by a computer assisted probit analysis.

Chains of the proteins cited; added tags and fusions are not shown.
UniProt P22909, whole entry: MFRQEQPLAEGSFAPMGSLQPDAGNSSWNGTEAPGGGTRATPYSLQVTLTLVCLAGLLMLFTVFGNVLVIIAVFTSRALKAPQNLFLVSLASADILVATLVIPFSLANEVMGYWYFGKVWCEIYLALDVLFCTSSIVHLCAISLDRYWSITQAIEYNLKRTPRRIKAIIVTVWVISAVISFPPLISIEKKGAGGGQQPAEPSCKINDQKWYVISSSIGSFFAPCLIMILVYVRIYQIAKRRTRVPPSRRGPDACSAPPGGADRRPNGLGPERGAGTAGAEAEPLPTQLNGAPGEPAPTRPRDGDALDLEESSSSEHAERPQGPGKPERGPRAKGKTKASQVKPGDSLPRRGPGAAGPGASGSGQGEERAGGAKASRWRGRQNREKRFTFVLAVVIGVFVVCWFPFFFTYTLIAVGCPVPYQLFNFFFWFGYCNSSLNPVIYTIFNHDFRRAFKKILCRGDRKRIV

Experiment [2] concerns the target Alpha-2D adrenergic receptor (Rattus norvegicus, UniProt P22909). The experiment is described as follows: Alpha-2D adrenergic receptor binding assay (3H-para-aminoclonidine, rat cortex synaptic membranes).

Like-named read-outs stand apart in the source and are kept apart here.

In experiment [1] (tested form: fumarate (1.5 C4H4O4)), `c1ccc2sc(Cc3c[nH]cn3)nc2c1` gave an MAIT of 7 po.

`c1nc(Cc2cc3c(s2)CCCC3)c[nH]1`: the Ki in experiment [2] (read-out: α2D Ki, ligand 3H-para-aminoclonidine, 25° C. 20 min) turned out to be 3.7 nM. The MAIT in experiment [1] was determined as 7 po.

As for `CC(c1c[nH]cn1)c1cc2c(s1)CCCC2` (centres unmarked), the Ki in experiment [2] (read-out: α2D Ki, ligand 3H-para-aminoclonidine, 25° C. 20 min, tested form: fumarate (1:1)) was 40 nM. The compound also had an MAIT in experiment [1] (tested form: fumarate (1:1)) of 20 po.

As a reminder, the Ki is the equilibrium dissociation constant of an inhibitor or competing ligand from its target.
